In this assay the target is cloned human dopamine D3 receptors (Homo sapiens, UniProt P35462). Description: [N-Methyl-3H]Spiroperidol binding to cloned human dopamine D3 receptors. The text has this:
[N-Methyl-^3H]Spiroperidol Binding to Cloned Human Dopamine D3 Receptors
This assay measures the in vitro activity of compounds on cloned human dopamine (D3) receptors and predicts the direct dopamine-blocking properties of putative neuropsychiatric agents at human dopamine D3 receptors.
The D3 gene was isolated from a human striatal cDNA library (Stratagene). The gene was sequenced and sub-cloned into the expression vector RC/RSV (Invitrogen). CHO (Chinese Hamster Ovary) cells were stably transfected with 10 μg of the D3/RSV plasmid using the DOTAP method from Boehringer Mannheim and 72 clones that were G418 resistant were isolated. Using mRNA and binding displacement data a single high expressing clone was identified. This clone was then grown in large batches for the purpose of developing a 96 well format assay.
• 1. One plate (10 cm) with approximately 2-3 million D3 cells per plate is incubated with 1 ml of Trypsin-EDTA at room temperature for ˜2 min or until cells have lifted off plates. […]
A 200 μl sample membrane homogenate is added to 200 μl of 1% SDS, vortexed and allowed to stand for 5 min. Aliquots (25, 50 and 100 μl) of this mixture are assayed in duplicate following the standard Bio-Rad DC protein assay protocol (kit catalog number 500-0112) and using reagent S. Absorbance readings are made at 750 nm (note: the most accurate protein OD readings are between 0.1-0.5 units). […]

The chains behind the UniProt entries cited, without tags or fusion partners.
UniProt P35462, whole entry: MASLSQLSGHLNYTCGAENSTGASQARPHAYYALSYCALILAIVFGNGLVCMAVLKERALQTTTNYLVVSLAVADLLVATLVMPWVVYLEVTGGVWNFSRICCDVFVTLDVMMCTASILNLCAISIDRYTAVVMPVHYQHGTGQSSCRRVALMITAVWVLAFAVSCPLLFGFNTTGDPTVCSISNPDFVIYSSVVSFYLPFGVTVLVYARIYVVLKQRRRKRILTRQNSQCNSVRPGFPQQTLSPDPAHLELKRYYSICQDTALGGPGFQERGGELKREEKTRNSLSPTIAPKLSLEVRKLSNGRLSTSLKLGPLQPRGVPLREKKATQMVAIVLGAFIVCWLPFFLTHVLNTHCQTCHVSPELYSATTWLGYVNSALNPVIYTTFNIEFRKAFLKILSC

Our source for the Ki values is patent US7772252B2, “Heterocyclic substituted carbonyl derivatives and their use as dopamine D3 receptor ligands” (Aventis Pharmaceuticals Inc., priority 2001, dated 2010).

Each structure is given as a SMILES string. pKi: −log10 of the molar value. Like-named read-outs stand apart in the source and are kept apart here.

Turning to `O=C(NCCCc1cc[nH]c1)[C@@H]1C[C@H]1CN1CCN(c2nn(Cc3ccccc3)c3ccsc23)CC1`, for the setting “read-out: D3 Ki”, the pKi was 8.31.
With `O=C(NC12CC3CC(CC(C3)C1)C2)[C@@H]1C[C@H]1CN1CCN(c2csc3cc(C(F)(F)F)ccc23)CC1` [826888], the pKi (read-out: d3Ki) was 7.43.
